For this assay, the target named is human neutrophil elastase (HNE) (Homo sapiens (Human), UniProt P08246). In words: In vitro HNE inhibition assay. Type of assay: biochemical. Conditions: HNE concentration of 80 pM; substrate MeOSuc-Ala-Ala-Pro-Val-AMC; 37° C. for 2 hours. The method, then:
B-1. In Vitro HNE Inhibition Assay
The potency of the compounds of the invention is ascertained in an in vitro inhibition assay. The HNE-mediated amidolytic cleavage of a suitable peptide substrate leads in this connection to an increase in the fluorescent light. The signal intensity of the fluorescent light is directly proportional to the enzyme activity.
Enzyme ([…]; from Serva, Heidelberg) and substrate (20 μM MeOSuc-Ala-Ala-Pro-Val-AMC; from Bachem, Weil am Rhein) are incubated in an assay volume of in total 50 μl of assay buffer (0.1 M HEPES pH 7.4, 0.5 M NaCl, 0.1% w/v BSA, 1% v/v DMSO) in a 384-well microtiter plate in the presence and absence of the test substance at 37° C. for 2 hours. […] The IC50 values are determined by plotting the intensity of the fluorescent light against the active substance concentration.

Chains of the proteins cited; added tags and fusions are not shown. Residues count along the entry.
UniProt P08246, 30-267: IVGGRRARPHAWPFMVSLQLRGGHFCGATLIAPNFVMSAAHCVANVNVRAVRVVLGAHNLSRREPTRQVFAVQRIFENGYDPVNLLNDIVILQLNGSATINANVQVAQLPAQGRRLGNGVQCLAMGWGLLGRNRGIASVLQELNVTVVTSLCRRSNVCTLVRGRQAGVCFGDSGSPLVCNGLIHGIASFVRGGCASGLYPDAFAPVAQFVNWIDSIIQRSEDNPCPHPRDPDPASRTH

pIC50: −log10 of the molar value.

Broadly, the pIC50 is the negative decadic logarithm of the IC50, by convention in mol/L. Take `CS(=O)(=O)c1cc(C#N)ccc1C1NC(=O)N(c2cccc(C(F)(F)F)c2)C2=C1C(=O)N(CCNC(N)=O)C2` (racemic) [Example 50, (rac)-1-(2-{4-[4-Cyano-2-(methylsulfonyl)phenyl]-2,5-dioxo-1-[3-(trifluoromethyl)phenyl]-1,2,3,4,5,7-hexahydro-6H-pyrrolo[3,4-d]pyrimidin-6-yl}ethyl)urea]: the pIC50 is 8.80.
